Assay results as given in patent publication US20130316985A1, “GPR35 Ligands And Uses Thereof” (CORNING INCORPORATED, priority 2012, published 2013).

The chains behind the UniProt entries cited, without tags or fusion partners. Where a name states a change or a piece, a line headed by the entry shows the natural chain unless it says otherwise.
UniProt Q9HC97: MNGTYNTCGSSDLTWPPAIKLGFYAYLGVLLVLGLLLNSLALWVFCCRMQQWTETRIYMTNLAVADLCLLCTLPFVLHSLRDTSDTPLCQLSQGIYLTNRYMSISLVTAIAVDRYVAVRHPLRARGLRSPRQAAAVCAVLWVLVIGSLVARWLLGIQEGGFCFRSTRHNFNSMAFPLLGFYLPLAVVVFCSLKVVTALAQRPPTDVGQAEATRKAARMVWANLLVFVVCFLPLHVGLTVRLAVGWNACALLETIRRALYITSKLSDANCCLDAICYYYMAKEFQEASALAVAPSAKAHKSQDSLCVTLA

Assays:
GPR35 [1] = target: T1, GPR35 (Homo sapiens, UniProt Q9HC97); assay: Tango β-arrestin translocation gene reporter assay in U2OS-GPR35-bla cells; assay type: cell-based; settings: for efficacy (Tango, normalized to maximal response of zaprinast) / β-arrestin translocation (Tango) signal (in words): U2OS-GPR35-bla; for efficacy (Tango, normalized to maximal response of zaprinast): zaprinast maximal response in same plate = 100%; for Efficacy Tango: maximal response normalized to the zaprinast maximal response; for pEC50: read-out: Potency EC50, Tango; for β-arrestin translocation (Tango) signal (in words): 2,3-DNP up to 1 mM, 3,4-DNP at 1 mM
GPR35 [2] = target: T1, GPR35; assay: DMR agonism assay in native HT-29 cells (Epic optical biosensor); settings: for Efficacy DMR: maximal DMR response in HT-29 (2,5-DNP: amplitude at 50 min); for pEC50: read-out: Potency EC50, DMR, maximal DMR amplitudes within 15 min poststimulation (2,5-DNP: amplitudes at 50 min), mean ± s.d., n=4
GPR35 [3] = target: T1, GPR35; assay: DMR antagonist assay: ML-145 pretreatment, then agonist at fixed dose, HT-29 cells; settings: ML-145 at different doses 10 min before agonist at fixed dose
[4] = U2OS-GPR35-bla cells, β-arrestin translocation, mean ± s.d.

| SMILES | efficacy (Tango, normalized to maximal response of zaprinast) (GPR35 [1]) [%] | Efficacy Tango (GPR35 [1]) | pEC50 (GPR35 [1]; [4]) | DMR signal in HT-29 cells (in words) (GPR35 [2]; agonism mode) | Efficacy DMR (GPR35 [2]) [pm] | pEC50 (GPR35 [2]; HT-29 cells) | inhibition of the agonist-induced DMR by ML-145 (in words) (GPR35 [3]) | Potency EC50, Tango (GPR35 [1]; [4]) | β-arrestin translocation (Tango) signal (in words) (GPR35 [1]) | EC50 (GPR35 [2]; read-out: EC50 (DMR), HT-29 cells, values printed in nM in the text) [nM] |
| --- | --- | --- | --- | --- | --- | --- | --- | --- | --- | --- |
| O=[N+]([O-])c1ccc([N+](=O)[O-])c(O)c1 | 15 | 15 ± 1 % zaprinast | 3.48 | slowly increased DMR signal | 269 ± 15 | 4.28 | partially inhibited |  |  |  |
| Cc1cc([N+](=O)[O-])cc([N+](=O)[O-])c1O | 37 | 37 ± 2 % zaprinast | 4.09 |  | 229 ± 14 | 5.16 |  |  |  |  |
| O=[N+]([O-])c1cccc(O)c1[N+](=O)[O-] |  | inactive |  |  | 192 ± 13 | 4.23 | partially inhibited | inactive | inactive |  |
| O=[N+]([O-])c1cc(C(=C(Cl)Cl)c2cc([N+](=O)[O-])c(O)c([N+](=O)[O-])c2)cc([N+](=O)[O-])c1O | 104 | 104 ± 6 % zaprinast | 5.67 |  | 210 ± 11 |  |  |  |  | 6 |
| O=[N+]([O-])c1cccc([N+](=O)[O-])c1O | 34 | 34 ± 4 % zaprinast | 4.12 |  | 288 ± 12 | 4.74 |  |  |  |  |
| O=[N+]([O-])c1ccc(O)cc1[N+](=O)[O-] |  | >6 % zaprinast | < 3.30 |  | 178 ± 12 | 3.95 | partially inhibited |  | little activity |  |
| O=[N+]([O-])c1cc(Cl)c(O)c([N+](=O)[O-])c1 | 26 | 26 ± 2 % zaprinast | 4.38 |  | 217 ± 15 | 5.26 |  |  |  |  |
| CC(C)(c1cc([N+](=O)[O-])c(O)c([N+](=O)[O-])c1)c1cc([N+](=O)[O-])c(O)c([N+](=O)[O-])c1 | 72 | 72 ± 5 % zaprinast | 4.53 |  | 195 ± 12 | 5.63 |  |  |  |  |
| O=[N+]([O-])c1cc([N+](=O)[O-])c(Cl)c(Cl)c1O | 32 | 32 ± 4 % zaprinast | 4.62 |  | 195 ± 11 | 5.86 |  |  |  |  |
| Cc1cc([N+](=O)[O-])c(O)c([N+](=O)[O-])c1 | 83 | 83 ± 5 % zaprinast | 4.44 |  | 235 ± 13 | 5.28 |  |  |  |  |

pEC50: −log10 of the molar value.
